Data on 1 compound can be found in ChEMBL document CHEMBL4152361, “Synthesis of oxidative metabolites of CRA13 and their analogs: Identification of CRA13 active metabolites and analogs thereof with selective CB2R affinity” (Bioorg Med Chem, 2018).

The chains behind the UniProt entries cited, without tags or fusion partners.
UniProt P21554, whole entry: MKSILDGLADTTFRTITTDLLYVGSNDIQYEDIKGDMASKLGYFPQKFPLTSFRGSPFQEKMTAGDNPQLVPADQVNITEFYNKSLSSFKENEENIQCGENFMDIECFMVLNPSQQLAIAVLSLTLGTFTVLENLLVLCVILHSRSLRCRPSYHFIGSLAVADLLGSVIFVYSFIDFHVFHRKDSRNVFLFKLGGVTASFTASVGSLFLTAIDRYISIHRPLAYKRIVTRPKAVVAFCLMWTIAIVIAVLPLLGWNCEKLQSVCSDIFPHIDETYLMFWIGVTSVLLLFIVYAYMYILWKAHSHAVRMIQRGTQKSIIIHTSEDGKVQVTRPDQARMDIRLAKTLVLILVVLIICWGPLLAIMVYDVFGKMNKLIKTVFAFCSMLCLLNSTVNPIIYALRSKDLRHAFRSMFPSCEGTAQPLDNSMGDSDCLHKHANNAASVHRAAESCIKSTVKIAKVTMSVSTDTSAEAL

The target in the test is Cannabinoid receptor 1 (Homo sapiens, UniProt P21554). Nature of the test: Displacement of [3H]SR141716A from membrane bound human CB1 receptor after 1 hr by beta scintillation counting method. (Loss of bound radioactivity is the signal in a displacement assay; it reports binding, not function.)

As for `CCCCCOc1ccc(C(=O)c2cccc3ccccc23)c2ccccc12`, the IC50 was 1.58 µM.

The IC50 is the concentration needed to halve the response being measured.
